# Values quoted from earlier work, collected in patent publication US10737072B2, “Control catheters and methods for pulmonary suffusion and related therapies” (SUFFUSION TECHNOLOGIES LLC, priority 2012, dated 2020).
# System: primary and metastatic cancer
# Details: Neyazaki, et al., 1969; 27 cases; cited from earlier work
smiles,measurement,value
CO[C@@]12[C@H](COC(N)=O)C3=C(C(=O)C(C)=C(N)C3=O)N1C[C@@H]1N[C@@H]12 [Mitomycin C],Chemical pneumonitis (number of cases),"pneumonitis (1), cases"
same,chest wall skin erythema (number of cases),erythema (1) cases
